Molecular target: T1, human GHS-R 1a (Homo sapiens, UniProt Q92847)
T1 construct: expressed in transfected cells; host or cells: LLC PK-1 porcine renal epithelial cells (ECACC No. 86121112), isolated plasma membranes
Assay: GHS-R 1a receptor-ligand binding assay (membrane preparations from transfected LLC PK-1 cells)
Conditions: displacement of 125I-His9-ghrelin (60 pM); membranes of LLC PK-1 cells transfected with human GHS-R 1a; mean of at least two independent experiments in triplicates
Description: (J. Med. […] Med. Chem. 2003, 46: 1191-1203), were incubated in homogenization buffer HB [50 mM Tris (pH 7.3), 5 mM MgCl2, 2.5 mM EDTA, and 30 μg/mL bacitracin (Sigma)] for 60 min at 25° C. (steady-state conditions) with 60 pM ^125I-[…]-ghrelin (Amersham) in the presence or absence of competing compounds (compounds of the invention). […] Nonspecific binding was defined using an excess (10^-6 M) of ghrelin. The binding reaction was stopped by addition of 4 mL of ice-cold HB followed by rapid filtration over Whatman GP/C filters presoaked with 0.5% polyethyleneimine to prevent excessive binding of radioligand to the filters. […] In the following table 2 results obtained for selected compounds of the invention are presented in comparison to an example of the prior art. IC50 values given are the mean of at least two independent experiments performed in triplicates.

Chains of the proteins cited; added tags and fusions are not shown.
UniProt Q92847, whole entry: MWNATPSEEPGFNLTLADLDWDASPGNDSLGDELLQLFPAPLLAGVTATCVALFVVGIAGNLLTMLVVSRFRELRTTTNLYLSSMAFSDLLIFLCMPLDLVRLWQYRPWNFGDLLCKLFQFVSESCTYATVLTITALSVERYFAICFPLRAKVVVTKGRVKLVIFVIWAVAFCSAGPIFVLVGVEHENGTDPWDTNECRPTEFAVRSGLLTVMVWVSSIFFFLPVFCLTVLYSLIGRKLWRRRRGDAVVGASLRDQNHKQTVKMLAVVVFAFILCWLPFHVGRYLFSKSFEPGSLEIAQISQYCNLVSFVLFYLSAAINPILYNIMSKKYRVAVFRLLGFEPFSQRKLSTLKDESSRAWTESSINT

| IC50 [nM] | SMILES |
| --- | --- |
| 11 | COc1ccc(Cn2c(CCc3ccccc3)nnc2[C@@H](Cc2c[nH]c3ccccc23)NC(=O)[C@@H]2CCCCN2)cc1 [compound 48, (S)—N—((R)-1-(4-(4-methoxybenzyl)-5-phenethyl-4H-1,2,4-triazol-3-yl)-2-(1H-indol-3-yl)ethyl)piperidine-2-carboxamide] |
| 23 | COc1ccc(Cn2c(CCc3ccccc3)nnc2[C@@H](Cc2c[nH]c3ccccc23)NC(=O)[C@H]2CCCCN2)cc1 [compound 49, (R)—N—((R)-1-(4-(4-methoxybenzyl)-5-phenethyl-4H-1,2,4-triazol-3-yl)-2-(1H-indol-3-yl)ethyl)piperidine-2-carboxamide] |
| 56 | COc1ccc(Cn2c(CCc3ccccc3)nnc2[C@@H](Cc2c[nH]c3ccccc23)NC(=O)CN)cc1 [compound 50, (R)—N-(1-(4-(4-methoxybenzyl)-5-phenethyl-4H-1,2,4-triazol-3-yl)-2-(1H-indol-3-yl)ethyl)-2-aminoacetamide] |
